{
  "sequences": {"note": "By UniProt entry, the sequences of proteins in these tests, tags left out. Residues count along the entry.", "UniProt P07339, 65-412, species assumed": "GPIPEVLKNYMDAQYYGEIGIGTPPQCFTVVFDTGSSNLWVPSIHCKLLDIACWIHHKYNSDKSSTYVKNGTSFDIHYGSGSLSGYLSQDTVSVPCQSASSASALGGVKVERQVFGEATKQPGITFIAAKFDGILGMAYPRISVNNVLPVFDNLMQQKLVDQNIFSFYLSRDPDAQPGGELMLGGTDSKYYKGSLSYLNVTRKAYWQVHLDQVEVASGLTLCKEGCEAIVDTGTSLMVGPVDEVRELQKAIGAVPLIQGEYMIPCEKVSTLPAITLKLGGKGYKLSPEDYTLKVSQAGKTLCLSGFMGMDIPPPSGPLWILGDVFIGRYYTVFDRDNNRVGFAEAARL"},
  "source": "patent US4384994A",
  "about": "“Renin inhibitory peptides” (Merck & Co., Inc., priority 1981, dated 1983)",
  "origin": "cited, not measured here",
  "target": "cathepsin D (Homo sapiens, UniProt P07339)",
  "settings": "Umezawa et al. 1970",
  "data": [
    {"substance": "pepstatin", "values": [
      {"measurement": "inhibition of cathepsin D", "value": "inhibitor"}
    ]}
  ]
}
